Measured values published in patent US20090138978A1 (GENERAL HOSPITAL, published 2009).

Amino acid sequences for entries named in this document (tags omitted). Residues count along the entry.
UniProt Q09472, 2-2414 limits assumed: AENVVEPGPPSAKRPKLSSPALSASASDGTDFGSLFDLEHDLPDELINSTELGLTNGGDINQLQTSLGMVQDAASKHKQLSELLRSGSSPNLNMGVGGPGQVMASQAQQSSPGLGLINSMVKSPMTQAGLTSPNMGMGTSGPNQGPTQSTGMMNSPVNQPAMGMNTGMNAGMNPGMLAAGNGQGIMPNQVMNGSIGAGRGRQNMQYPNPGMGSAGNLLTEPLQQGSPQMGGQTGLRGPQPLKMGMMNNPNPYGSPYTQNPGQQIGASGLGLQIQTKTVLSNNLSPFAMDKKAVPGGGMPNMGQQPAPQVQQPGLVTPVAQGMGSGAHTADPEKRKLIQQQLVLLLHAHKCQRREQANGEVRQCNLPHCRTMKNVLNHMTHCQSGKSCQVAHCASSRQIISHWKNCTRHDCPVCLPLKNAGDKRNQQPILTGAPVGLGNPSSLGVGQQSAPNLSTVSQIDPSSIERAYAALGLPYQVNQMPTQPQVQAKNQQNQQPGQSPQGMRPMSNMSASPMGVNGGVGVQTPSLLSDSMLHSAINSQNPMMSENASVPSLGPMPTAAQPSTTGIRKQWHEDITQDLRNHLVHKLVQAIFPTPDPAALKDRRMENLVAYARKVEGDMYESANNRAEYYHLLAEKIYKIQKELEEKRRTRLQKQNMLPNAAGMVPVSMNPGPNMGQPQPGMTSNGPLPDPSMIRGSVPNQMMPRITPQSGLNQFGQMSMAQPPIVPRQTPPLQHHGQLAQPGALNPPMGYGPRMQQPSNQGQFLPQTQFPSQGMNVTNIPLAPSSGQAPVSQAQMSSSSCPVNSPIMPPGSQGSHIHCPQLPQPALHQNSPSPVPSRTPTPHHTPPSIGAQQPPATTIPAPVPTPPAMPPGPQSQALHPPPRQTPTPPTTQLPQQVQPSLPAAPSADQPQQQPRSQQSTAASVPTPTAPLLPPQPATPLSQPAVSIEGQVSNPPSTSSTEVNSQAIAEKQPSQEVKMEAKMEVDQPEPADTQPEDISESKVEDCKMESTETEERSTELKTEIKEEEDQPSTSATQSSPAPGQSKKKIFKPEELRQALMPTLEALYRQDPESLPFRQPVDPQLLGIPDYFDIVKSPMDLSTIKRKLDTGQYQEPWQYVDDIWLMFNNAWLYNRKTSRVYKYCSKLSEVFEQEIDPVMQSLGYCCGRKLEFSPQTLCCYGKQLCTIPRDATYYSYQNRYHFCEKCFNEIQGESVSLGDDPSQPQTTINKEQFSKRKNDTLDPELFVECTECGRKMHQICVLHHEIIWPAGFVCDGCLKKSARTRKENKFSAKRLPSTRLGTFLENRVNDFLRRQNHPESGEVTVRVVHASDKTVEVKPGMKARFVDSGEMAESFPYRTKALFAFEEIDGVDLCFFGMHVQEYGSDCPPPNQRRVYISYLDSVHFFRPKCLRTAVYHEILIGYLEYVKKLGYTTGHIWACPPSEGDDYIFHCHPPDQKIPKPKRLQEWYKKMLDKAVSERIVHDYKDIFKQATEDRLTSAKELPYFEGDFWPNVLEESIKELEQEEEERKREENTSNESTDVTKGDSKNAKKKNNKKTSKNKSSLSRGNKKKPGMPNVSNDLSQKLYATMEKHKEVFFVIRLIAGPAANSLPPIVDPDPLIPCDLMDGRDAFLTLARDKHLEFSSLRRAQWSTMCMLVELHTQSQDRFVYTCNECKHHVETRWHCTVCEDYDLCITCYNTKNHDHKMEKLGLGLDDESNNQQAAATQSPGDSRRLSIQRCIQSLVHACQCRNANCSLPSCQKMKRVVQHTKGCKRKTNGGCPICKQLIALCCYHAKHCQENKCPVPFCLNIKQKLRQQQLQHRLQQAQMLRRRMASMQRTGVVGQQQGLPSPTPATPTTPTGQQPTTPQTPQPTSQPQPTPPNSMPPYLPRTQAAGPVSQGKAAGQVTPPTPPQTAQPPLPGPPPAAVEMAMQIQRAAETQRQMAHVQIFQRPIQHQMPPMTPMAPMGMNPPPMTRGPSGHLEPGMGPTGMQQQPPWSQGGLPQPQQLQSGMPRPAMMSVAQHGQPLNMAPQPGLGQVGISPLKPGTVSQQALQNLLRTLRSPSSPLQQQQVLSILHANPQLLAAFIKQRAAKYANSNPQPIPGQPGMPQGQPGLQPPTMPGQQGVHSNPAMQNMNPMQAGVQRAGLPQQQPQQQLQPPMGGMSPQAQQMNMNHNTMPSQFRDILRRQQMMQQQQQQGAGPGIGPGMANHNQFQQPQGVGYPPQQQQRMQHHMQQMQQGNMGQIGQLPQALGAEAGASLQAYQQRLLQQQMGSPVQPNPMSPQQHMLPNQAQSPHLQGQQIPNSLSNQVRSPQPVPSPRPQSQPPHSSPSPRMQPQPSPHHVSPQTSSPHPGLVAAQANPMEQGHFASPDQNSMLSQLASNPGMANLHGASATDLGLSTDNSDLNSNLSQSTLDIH

Molecular target: T1, p300 (full-length histone acetyltransferase and nuclear receptor coactivator) (UniProt Q09472, [35S]-methionine labelled in the pull-down assays)
T1 construct: mature; In vitro translated in rabbit reticulocyte lysate for the pull-downs; Expressed from pCMV-p300 in BHK cells for the reporter assay; also called [35S]-p300; radiolabeled in vitro translated full-length p300
Assay: GST pull-down with [35S]-labelled in vitro translated full-length p300

B1: GST control protein (glutathione S-transferase alone) (other, UniProt P08515 1-218, looked up)
chain: MSPILGYWKIKGLVQPTRLLLEYLEEKYEEHLYERDEGDKWRNKKFELGLEFPNLPYYIDGDVKLTQSMAIIRYIADKHNMLGGCPKERAEISMLEGAVLDIRYGVSRIAYSKDFETLKVDFLSKLPEMLKMFEDRLCHKTYLNGDHVTHPDFMLYDALDVVLYMDPMCLDAFPKLVCFKKRIEAIPQIDKYLKSSKYIAWPLQGWQATFGGGDHPPK
notes: Negative control of the GST pull-down assays; also called GST negative control protein
B1: no binding.
